The record followed here is US20020103111A1, “Inhibitors of MAdCAM-1-mediated interactions and methods of use therefor” (Millennium Pharmaceuticals, Inc., priority 1996, published 2002).

For this experiment, the target named is human α4β7 integrin (human) (UniProt P13612). Put plainly: inhibition of HUT 78 cell adhesion to murine MAdCAM-1/mCk.
A word on the IC50: it is the concentration that gives 50% inhibition. Turning to Ac-Lle-Asp-Thr-Ser-Leu (peptide), the IC50 was 19000 µM.

Regarding Ac-Leu-Asp-HyP-Ser-Leu (peptide), the IC50 turned out to be 106 µM.

In the case of Flc-Leu-Asp-Thr-Ser-Leu (peptide), the half-inhibitory concentration (IC50) stood at 17 µM.
